Laboratory results taken from patent publication US9259422B2, “Orvinol and thevinol derivatives useful in the treatment of depression” (dated 2016).

Protein sequences, listed by entry. Tags and fused reporters are not part of them. Lines headed by an entry give the natural chain unless they say otherwise; changes in a name come on top.
UniProt P33533, whole entry, looked up: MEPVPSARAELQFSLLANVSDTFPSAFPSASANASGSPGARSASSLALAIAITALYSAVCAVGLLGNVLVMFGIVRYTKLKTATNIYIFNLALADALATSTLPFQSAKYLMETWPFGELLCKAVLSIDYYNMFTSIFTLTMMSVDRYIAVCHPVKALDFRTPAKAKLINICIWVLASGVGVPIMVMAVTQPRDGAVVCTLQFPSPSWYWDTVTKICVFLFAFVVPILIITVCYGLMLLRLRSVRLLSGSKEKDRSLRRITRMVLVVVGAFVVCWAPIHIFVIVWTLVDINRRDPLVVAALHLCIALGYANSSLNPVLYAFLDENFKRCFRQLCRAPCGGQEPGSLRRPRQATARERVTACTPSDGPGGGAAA
UniProt P41145: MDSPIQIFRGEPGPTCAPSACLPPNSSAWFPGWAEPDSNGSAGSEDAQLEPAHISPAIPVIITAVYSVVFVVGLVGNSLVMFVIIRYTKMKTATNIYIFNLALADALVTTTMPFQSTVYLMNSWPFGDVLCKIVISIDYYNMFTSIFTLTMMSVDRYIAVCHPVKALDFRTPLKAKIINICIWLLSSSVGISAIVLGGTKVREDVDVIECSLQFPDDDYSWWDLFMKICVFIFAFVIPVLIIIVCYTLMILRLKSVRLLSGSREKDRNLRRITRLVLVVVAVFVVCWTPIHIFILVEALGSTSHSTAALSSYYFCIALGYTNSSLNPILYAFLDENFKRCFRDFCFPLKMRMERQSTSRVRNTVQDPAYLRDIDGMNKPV

Key:
rat DOR = rat DOR (Rattus norvegicus (Rat), UniProt P33533); experiment: Ligand binding assay, [3H]diprenorphine, delta (DOP) receptor
human KOR = human KOR (Homo sapiens (Human), UniProt P41145); experiment: [35S]GTPγS binding assay, kappa receptor; conditions: for Kappa % stim (efficacy): single concentration (10 μM) versus the standard U69,593

Row | SMILES | Ki (rat DOR) [nM] | Kappa antagonist potency Ke (human KOR; against standard agonist U69593) [nM] | Kb (human KOR; read-out: Kappa antagonist potency Ke, against standard agonist U69593) [nM] | Kappa % stim (efficacy) (human KOR) [%]
1 | CO[C@]12CC[C@@]3(C[C@@H]1[C@H](O)c1ccccc1)[C@H]1Cc4ccc(O)c5c4[C@@]3(CCN1CC1CC1)[C@H]2O5 | 2.55 |  |  | 
2 | CO[C@]12C=C[C@@]3(C[C@]1(C)[C@H](O)c1ccccc1)[C@H]1Cc4ccc(O)c5c4[C@@]3(CCN1CC1CC1)[C@H]2O5 |  | 0.41 | 0.41 | 3
3 | CO[C@]12CC[C@@]3(C[C@]1(C)[C@H](O)c1ccc(F)cc1)[C@H]1Cc4ccc(O)c5c4[C@@]3(CCN1CC1CC1)[C@H]2O5 |  |  |  | −5
4 | CO[C@]12CC[C@@]3(C[C@]1(C)[C@H](O)c1cccc(C)c1)[C@H]1Cc4ccc(O)c5c4[C@@]3(CCN1CC1CC1)[C@H]2O5 |  |  |  | −1
